PubChem BioAssay AID1777 (Sanford-Burnham Center for Chemical Genomics, 2009)
The list shows a part of the results. Measured potencies and affinities stand elsewhere. Active and inactive are the calls of the source. No stated cut-off is given here; in the data, active means activation above about 50% (passing the limit was not always enough); inactive means the rest.

Protein sequences, listed by entry. Tags and fused reporters are not part of them. Lines headed by an entry give the natural chain unless they say otherwise; changes in a name come on top.
UniProt P41145: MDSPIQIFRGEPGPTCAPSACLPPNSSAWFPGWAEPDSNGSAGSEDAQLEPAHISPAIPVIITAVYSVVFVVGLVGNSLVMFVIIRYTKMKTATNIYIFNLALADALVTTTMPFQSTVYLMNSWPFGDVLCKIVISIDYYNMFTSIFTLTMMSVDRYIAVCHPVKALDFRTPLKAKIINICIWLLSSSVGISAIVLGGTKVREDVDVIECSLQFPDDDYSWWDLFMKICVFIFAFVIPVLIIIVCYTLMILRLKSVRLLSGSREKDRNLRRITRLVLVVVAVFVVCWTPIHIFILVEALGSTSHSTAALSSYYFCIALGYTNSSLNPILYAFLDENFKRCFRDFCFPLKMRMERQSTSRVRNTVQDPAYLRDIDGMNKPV

Each compound was assayed against Kappa-type opioid receptor (Homo sapiens) (UniProt P41145) (assay: kappa opioid receptor activators – cell-based, luminescence, uHTS, primary screen (AID 1777)). Details: KOR beta-arrestin recruitment, at 10 µM, hits give high values.

Compound | activation
COc1ccc(CNC(=O)[C@H](C)NC(=O)N2CCn3c2nc2ccccc23)cc1 | inactive: -1.3%
CCOP(=O)(Nc1cccc2ccccc12)OCC | inactive: -1.3%
COc1cccc(CNc2nc3ccccc3n2CCN2CCCCC2)c1 | inactive: 6.8%
O=C(Nc1ccccc1)N1CCn2c(nc3ccccc32)C1 | inactive: -0.3%
O=C(CSc1nc2ccccc2n1CC(=O)N1CCCC1)Nc1ccc2c(c1)OCO2 | inactive: -8.1%
O=C(Nc1ccc2c(c1)nc1n2CCN(C2CCCCC2)C1)c1ccco1 | inactive: -1.2%
O=C(CCCCCNC(=O)N1CCn2c1nc1ccccc12)NCc1ccccc1Cl | inactive: 1.3%
O=C(Cn1c(-c2ccccn2)nc2ccccc21)N/N=C/c1ccccn1 | inactive: -3.6%
O=C(Cn1c(NCCO)nc2ccccc21)NCC1CCCO1 (configuration not stated) | inactive: -0.6%
O=C(Cn1c(S(=O)(=O)Cc2ccccc2)nc2ccccc21)N1CCCCC1 | inactive: 1.3%
COCCN1CCn2c(nc3cc(NC(=O)c4cccs4)ccc32)C1 | inactive: -2.1%
COc1cc(C2NCCC3(OCCO3)C2(C)C)cc(OC)c1OC (configuration not stated) | inactive: -1.3%
Cn1c(=O)n(CC(N)=O)c2ccccc21 | inactive: 2.9%
CCN(CC)CCn1c(NC(=O)c2ccc(Cl)cc2)nc2ccccc21 | inactive: 45.7%
CC1CCC2C(=O)N(c3ccc(NC4CCN(Cc5ccccc5)CC4)c([N+](=O)[O-])c3)C(=O)C2C1 (configuration not stated) | inactive: -0.1%
CCCC(=O)Nc1nnc(/C=C/c2ccc(OC)cc2)s1 | inactive: 3.1%
Cc1ccc2c(c1)C1CN(C)CCC1N2C(=S)Nc1ccc(OC(F)F)cc1 (configuration not stated) | inactive: -2.8%
CC(=O)Nc1nc2ccccc2n1CCN(C)C | inactive: 0.4%
c1ccc2c(c1)nc1n2CCN1 | inactive: -2.4%
Cc1ccc(S(=O)(=O)c2nnn3c2nc(NC2CCN(Cc4ccccc4)CC2)c2ccccc23)cc1C | inactive: 0.3%
CCN(CC)CCn1cnc2c1c(=O)[nH]c(=O)n2Cc1ccccc1 | inactive: -1.7%

Compound | activation
CN1CCC(N(C)c2nc(-c3ccccc3)nc3ccccc23)CC1 | inactive: -0.2%
C[C@H](NC(=O)N1CCn2c1nc1ccccc12)C(=O)NCC1CCCO1 (some centres not stated) | inactive: 0.7%
CCC(=O)Nc1ccc(NC(=S)NC(=O)/C=C/c2ccco2)cc1 | inactive: -4.6%
c1ccc(Cn2c(CNc3nc4ccccc4n3CCN3CCCCC3)nc3ccccc32)cc1 | inactive: 2.4%
CN1CCN(C(=O)Cn2c(C(F)(F)F)nc3ccccc32)CC1 | inactive: -3.1%
O=C(OC1CN2CCC1CC2)c1ccc(Cl)cc1 (configuration not stated) | inactive: 1.2%
Cn1cccc1/C=N/NC(=O)Cn1cnc2ccccc21 | inactive: 19.3%
CS(=O)(=O)c1ccc(Cl)c(NC(=O)COC(=O)C(O)(c2ccccc2)c2ccccc2)c1 | inactive: 0.5%
Cn1c(=O)c2c(ncn2CC(=O)Nc2cccc(S(=O)(=O)Nc3ccccc3F)c2)n(C)c1=O | inactive: -0.1%
C(=N\c1nc2ccccc2n1CCN1CCOCC1)/c1cccs1 | inactive: 2.5%
Cc1nc2cc(C(F)(F)F)ccc2n1CCNc1nc(-c2ccc([N+](=O)[O-])c(Cl)c2)cs1 | inactive: -0.9%
CC(C)C(NS(=O)(=O)c1cccc2nsnc12)C(=O)N1CCn2c1nc1ccccc12 (configuration not stated) | inactive: -1.1%
OCCNc1nc2ccccc2n1CCN1CCCCC1 | inactive: -5.4%
Cc1nc2ccccc2n1CC(=O)NCCN1CCOCC1 | inactive: 7.2%
O=[As](O)(O)c1cccnc1 | inactive: 3.5%
Cn1c(=O)c2c(ncn2CC(=O)N2CCCCCC2)n(C)c1=O | inactive: -0.2%
CN(C)C(=O)Cn1c(=O)n(C)c2ccccc21 | inactive: -1.4%
O=C(Cn1cnc2ccccc21)N/N=C/c1cccnc1 | inactive: 0.2%
CCOC(=O)C1=C(C)N=C2SCCC(=O)N2[C@@H]1/C=C/c1ccccc1 | inactive: -1.6%
O=C(Cn1c(-c2cncs2)nc2ccccc21)NC1CCCC1 | inactive: -5.3%
CCN(CC)CCn1c(NCc2cc(OC)ccc2OC)nc2ccccc21 | inactive: -0.8%

Compound | activation
O=C(Cn1c(CO)nc2ccccc21)NC1CCCCCC1 | inactive: -2.6%
N#CCC(=O)N1CCn2c1nc1ccccc12 | inactive: -3.4%
CCOC(=O)CSc1nc2ccccc2n1CC(=O)NC(C)(C)C | inactive: -0.1%
Cc1c(Cl)c(C(=O)Nc2nc3ccccc3n2CCN2CCCCC2)nn1C | inactive: -0.5%
O=[As](O)(c1cccc(O)c1)c1cccc(O)c1 | inactive: 3.9%
Cn1c(=O)c2c(ncn2CCN(CCO)Cc2ccccc2)n(C)c1=O | inactive: 18.7%
C=CCOC(=O)C1=C(C)N=C2SCCC(=O)N2C1/C=C/c1ccccc1 (configuration not stated) | inactive: 2.5%
COc1ccc(CNc2nc3ccccc3n2CCN2CCOCC2)cc1 | inactive: -2.1%
Cc1cccc(OCC(=O)OC2CN3CCC2CC3)c1 (configuration not stated) | inactive: -7.6%
CC(C)c1ccccc1NC(=O)Cn1c(/C=C/c2ccccc2)nc2ccccc21 | inactive: 5.1%
CCc1ccc(NC(=O)Cn2c3[n+](c4c(F)c(F)ccc42)CCCCC3)cc1 | inactive: 2.4%
CC(C)(C)NC(=O)Cn1c(-c2nonc2N)nc2ccccc21 | inactive: 0.9%
O=[N+]([O-])c1ccc2c(c1)nc1n2CCN(C2CCCCC2)C1 | inactive: -4.8%
COC(=O)Cn1c(=N)n(CCN2CCCCC2)c2ccccc21 | inactive: 1.6%
Cn1c(=O)c2ncn(CC(=O)NCCOc3ccccc3)c2n(C)c1=O | inactive: -1.5%
CC(C(=O)Nc1ccccc1C(=O)O)n1c(C(F)(F)F)nc2ccccc21 (configuration not stated) | inactive: -0.1%
Cn1c(=O)c2c(ncn2CC(=O)N(Cc2ccccc2)c2ccccn2)n(C)c1=O | inactive: -2.4%
O=C(Nc1nc2ccccc2n1CCN1CCCC1)C1CCCCC1 | inactive: 3.2%
CCN(CC)CCn1c(NCc2ccc(C)o2)nc2ccccc21 | inactive: 3.6%
CCC(C)NC(=O)Cn1c(COc2ccc(Cl)cc2Cl)nc2ccccc21 (configuration not stated) | inactive: 1.8%
